Measured values: ChEMBL document CHEMBL3886441, “Substituted pyrrolo[2,3-h][1,6]naphthyridines and compositions thereof as JAK inhibitors” (2015)

Sequences of proteins named here, by UniProt entry; tags and fusion partners are left off. A change or cut given only in a name is not applied to a line headed by its entry.
UniProt P29597: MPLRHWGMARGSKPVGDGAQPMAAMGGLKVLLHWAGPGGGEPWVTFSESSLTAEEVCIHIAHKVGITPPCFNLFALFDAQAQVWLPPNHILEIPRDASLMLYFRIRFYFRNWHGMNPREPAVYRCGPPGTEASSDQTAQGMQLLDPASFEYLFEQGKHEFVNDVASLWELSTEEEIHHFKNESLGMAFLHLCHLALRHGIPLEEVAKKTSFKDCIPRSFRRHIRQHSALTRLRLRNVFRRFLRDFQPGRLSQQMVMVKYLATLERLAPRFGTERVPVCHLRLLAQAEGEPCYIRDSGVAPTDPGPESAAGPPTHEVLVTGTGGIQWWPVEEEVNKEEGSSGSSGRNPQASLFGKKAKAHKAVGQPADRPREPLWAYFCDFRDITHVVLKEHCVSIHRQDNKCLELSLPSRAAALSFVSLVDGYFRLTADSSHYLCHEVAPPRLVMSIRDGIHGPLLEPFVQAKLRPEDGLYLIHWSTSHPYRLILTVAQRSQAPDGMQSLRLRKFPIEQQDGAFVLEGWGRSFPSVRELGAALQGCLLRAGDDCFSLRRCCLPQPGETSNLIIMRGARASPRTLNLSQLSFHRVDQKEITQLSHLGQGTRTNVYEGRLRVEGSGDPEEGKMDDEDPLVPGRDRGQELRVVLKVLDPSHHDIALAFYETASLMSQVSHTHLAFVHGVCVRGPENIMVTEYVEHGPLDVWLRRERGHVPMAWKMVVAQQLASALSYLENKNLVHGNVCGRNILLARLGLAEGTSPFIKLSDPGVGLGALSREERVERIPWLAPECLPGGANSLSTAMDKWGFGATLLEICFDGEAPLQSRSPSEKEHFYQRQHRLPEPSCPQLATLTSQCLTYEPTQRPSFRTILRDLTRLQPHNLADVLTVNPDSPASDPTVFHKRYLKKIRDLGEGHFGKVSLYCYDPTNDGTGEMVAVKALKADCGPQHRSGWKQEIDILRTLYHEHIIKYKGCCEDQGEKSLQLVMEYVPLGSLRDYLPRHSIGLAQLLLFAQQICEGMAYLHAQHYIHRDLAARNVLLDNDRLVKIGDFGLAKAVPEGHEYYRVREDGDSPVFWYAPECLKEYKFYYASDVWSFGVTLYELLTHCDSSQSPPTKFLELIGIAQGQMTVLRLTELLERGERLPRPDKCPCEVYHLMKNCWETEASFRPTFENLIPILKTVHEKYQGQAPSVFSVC
UniProt P23458: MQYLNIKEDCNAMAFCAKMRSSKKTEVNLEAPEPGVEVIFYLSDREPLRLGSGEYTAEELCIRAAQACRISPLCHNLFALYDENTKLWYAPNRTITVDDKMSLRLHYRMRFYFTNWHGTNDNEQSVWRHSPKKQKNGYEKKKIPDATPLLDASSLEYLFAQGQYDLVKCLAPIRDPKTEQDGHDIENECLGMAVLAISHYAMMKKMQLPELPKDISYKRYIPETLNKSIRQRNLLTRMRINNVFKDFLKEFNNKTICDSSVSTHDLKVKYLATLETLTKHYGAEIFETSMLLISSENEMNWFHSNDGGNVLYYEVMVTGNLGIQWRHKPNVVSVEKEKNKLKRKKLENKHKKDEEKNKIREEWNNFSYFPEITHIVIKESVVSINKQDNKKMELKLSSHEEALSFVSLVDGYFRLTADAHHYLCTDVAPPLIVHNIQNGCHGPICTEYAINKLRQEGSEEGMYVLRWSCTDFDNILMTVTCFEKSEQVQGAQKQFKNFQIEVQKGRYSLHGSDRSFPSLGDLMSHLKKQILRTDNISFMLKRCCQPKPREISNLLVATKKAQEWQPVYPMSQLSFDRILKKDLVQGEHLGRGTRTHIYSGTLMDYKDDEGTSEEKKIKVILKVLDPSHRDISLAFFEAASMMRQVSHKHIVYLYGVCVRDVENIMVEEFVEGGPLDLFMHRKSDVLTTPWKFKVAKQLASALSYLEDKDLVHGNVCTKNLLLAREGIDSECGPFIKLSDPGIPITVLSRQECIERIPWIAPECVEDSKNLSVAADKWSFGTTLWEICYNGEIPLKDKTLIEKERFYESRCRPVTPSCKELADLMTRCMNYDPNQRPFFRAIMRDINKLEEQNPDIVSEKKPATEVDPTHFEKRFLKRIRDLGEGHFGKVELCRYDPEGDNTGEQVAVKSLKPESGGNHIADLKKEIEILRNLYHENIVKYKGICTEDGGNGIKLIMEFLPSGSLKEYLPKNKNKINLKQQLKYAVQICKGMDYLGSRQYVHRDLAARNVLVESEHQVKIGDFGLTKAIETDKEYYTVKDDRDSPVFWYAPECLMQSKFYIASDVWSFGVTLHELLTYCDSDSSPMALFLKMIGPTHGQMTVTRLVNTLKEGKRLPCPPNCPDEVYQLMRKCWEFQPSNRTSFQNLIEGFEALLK
UniProt O60674: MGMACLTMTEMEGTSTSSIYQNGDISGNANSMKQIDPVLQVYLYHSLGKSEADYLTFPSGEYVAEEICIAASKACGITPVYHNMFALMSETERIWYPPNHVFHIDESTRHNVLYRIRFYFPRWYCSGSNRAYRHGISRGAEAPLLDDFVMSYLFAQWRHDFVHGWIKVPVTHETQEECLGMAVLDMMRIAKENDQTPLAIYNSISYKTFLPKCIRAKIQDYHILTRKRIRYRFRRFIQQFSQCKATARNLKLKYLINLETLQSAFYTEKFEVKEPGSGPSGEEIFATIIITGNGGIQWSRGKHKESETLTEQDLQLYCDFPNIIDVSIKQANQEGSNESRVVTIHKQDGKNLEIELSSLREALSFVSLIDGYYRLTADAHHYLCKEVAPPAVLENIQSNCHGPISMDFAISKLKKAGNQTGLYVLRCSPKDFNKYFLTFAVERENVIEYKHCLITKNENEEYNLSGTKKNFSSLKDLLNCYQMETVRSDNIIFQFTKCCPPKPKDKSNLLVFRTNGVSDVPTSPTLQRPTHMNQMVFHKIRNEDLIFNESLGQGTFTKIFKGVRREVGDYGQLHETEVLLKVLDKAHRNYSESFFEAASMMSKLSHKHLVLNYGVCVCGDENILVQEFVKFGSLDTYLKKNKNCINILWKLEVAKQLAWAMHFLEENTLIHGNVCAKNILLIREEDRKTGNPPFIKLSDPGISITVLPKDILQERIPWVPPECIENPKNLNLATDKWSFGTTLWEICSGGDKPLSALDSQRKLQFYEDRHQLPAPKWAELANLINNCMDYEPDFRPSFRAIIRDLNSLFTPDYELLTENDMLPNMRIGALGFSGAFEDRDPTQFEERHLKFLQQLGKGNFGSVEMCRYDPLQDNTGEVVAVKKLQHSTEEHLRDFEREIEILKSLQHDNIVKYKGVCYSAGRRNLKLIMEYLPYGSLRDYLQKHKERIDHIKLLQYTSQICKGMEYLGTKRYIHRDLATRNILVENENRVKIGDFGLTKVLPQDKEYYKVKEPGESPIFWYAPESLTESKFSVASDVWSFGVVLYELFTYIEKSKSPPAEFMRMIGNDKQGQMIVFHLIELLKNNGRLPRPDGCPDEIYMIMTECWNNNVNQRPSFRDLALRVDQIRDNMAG

Experiments:
[1] = target: Non-receptor tyrosine-protein kinase TYK2 (Homo sapiens, UniProt P29597); test: Enzyme Assay: JAK1, JAK2, JAK3 and Tyk2 were purchased from Carna Biosciences, Inc. As the substrate, LANCE Ultra ULight-JAK1 Peptide (manufactured by PerkinElmer Co., Ltd. (PE)) was used. Dilute solutions of compounds and enzymes in assay buffer (50 mM HEPES pH7.5, 1 mM EGTA, 1 mM MgCl2, 2 mM DTT, 0.01% Tween20) were dispensed into wells of a 384-well black plate. After 5 minutes of …
[2] = target: Tyrosine-protein kinase JAK1 (Homo sapiens, UniProt P23458)
[3] = target: Tyrosine-protein kinase JAK2 (Homo sapiens, UniProt O60674); test: Enzyme Assay: JAK1, JAK2, JAK3 and Tyk2 were purchased from Carna Biosciences, Inc. As the substrate, LANCE Ultra ULight-JAK1 Peptide (manufactured by PerkinElmer Co., Ltd. (PE)) was used. Dilute solutions of compounds and enzymes in assay buffer (50 mM HEPES pH7.5, 1 mM EGTA, 1 mM MgCl2, 2 mM DTT, 0.01% Tween20) were dispensed into wells of a 384-well black plate. After 5 minutes of …

N#Cc1ccc(CN2CCCC(c3nnn4cnc5[nH]ccc5c34)C2)cc1 (racemic)
IC50 [1]: 880 nM
IC50 [2]: 61 nM
IC50 [3]: 560 nM
